Data: PubChem BioAssay AID581 (PCMD, 2007)
The entries are a selection whose mix differs from that of the whole data set. Some tests of the compounds listed are not included; inactive here does not mean inactive elsewhere. Calls of active or inactive are those of the source.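 The calls were made as follows: active = inhibition above 20% in each of the two mixture wells holding the compound; inactive = inhibition of 20% or less in either well.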

Protein sequences, listed by entry. Tags and fused reporters are not part of them. Residues count along the entry.
UniProt P08311, 21-244 limits assumed: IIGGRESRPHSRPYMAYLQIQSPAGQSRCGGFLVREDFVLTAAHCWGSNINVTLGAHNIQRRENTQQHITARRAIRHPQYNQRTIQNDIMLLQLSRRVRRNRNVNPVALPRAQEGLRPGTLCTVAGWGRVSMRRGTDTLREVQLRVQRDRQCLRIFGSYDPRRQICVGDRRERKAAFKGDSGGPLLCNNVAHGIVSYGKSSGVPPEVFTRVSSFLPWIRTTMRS

These compounds were tested against Cathepsin G (Homo sapiens) (UniProt P08311) (assay: human cathepsin G inhibitors, primary screen, biochemical, pooled compound mixtures, AMC fluorescence (AID 581;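 also: 0% = enzyme control without mixture and 100% = blank lacking enzyme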)). Details: purified enzyme, AMC-tetrapeptide fluorescence, stronger effect = higher value, screened at 5 µM (by protocol).
`O=C(OC1CN2CCC1CC2)C(CO)(c1ccccc1)c1ccccc1` (configuration not stated) was tested, and the inhibition was inactive: 4.8%.
For `CN(C)c1cccc(C(=O)NCC2(N(C)C)CCCCC2)c1`, the inhibition was inactive: 10.7%.
